Data on 1 compound can be found in article PMC2764797 (Neurochemistry international, 2009).

Amino acid sequences for entries named in this document (tags omitted). A change or cut given only in a name is not applied to a line headed by its entry.
UniProt P30531: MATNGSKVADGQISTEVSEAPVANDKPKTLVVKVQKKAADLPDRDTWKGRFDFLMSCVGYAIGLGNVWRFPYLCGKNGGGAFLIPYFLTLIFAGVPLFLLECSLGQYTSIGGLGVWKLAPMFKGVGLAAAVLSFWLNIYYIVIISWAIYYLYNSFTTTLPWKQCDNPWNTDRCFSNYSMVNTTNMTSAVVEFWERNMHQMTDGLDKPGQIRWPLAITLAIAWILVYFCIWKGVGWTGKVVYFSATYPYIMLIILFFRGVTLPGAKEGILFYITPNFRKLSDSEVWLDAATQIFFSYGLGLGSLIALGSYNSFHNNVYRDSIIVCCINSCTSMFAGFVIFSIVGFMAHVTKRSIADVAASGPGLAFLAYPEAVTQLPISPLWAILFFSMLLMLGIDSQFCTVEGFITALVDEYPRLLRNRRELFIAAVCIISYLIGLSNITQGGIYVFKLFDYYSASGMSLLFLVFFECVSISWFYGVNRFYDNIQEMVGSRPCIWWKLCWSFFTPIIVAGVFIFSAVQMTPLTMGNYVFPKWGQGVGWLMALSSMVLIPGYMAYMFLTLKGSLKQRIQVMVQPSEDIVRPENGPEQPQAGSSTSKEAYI

This assay addresses GAT1 (Homo sapiens, UniProt P30531). The format is cell-based.

Usually Ki stands for the equilibrium dissociation constant of an inhibitor or competing ligand from its target. A high value points to a looser hold on the target. The compound `O=C(O)C1CCCN(CCC=C(c2ccccc2)c2ccccc2)C1` (stereo not shown) [SKF-89976A, 1-(4,4-Diphenyl-3-butenyl)-3-piperidinecarboxylic acid] came in with a Ki of 640 ± 50 nM.
